Results published in patent US12583836B2 (Anaxis Pharma Pty Ltd, priority 2020, dated 2026).

Amino acid sequences for entries named in this document (tags omitted). A change or cut given only in a name is not applied to a line headed by its entry.
UniProt Q9Y572: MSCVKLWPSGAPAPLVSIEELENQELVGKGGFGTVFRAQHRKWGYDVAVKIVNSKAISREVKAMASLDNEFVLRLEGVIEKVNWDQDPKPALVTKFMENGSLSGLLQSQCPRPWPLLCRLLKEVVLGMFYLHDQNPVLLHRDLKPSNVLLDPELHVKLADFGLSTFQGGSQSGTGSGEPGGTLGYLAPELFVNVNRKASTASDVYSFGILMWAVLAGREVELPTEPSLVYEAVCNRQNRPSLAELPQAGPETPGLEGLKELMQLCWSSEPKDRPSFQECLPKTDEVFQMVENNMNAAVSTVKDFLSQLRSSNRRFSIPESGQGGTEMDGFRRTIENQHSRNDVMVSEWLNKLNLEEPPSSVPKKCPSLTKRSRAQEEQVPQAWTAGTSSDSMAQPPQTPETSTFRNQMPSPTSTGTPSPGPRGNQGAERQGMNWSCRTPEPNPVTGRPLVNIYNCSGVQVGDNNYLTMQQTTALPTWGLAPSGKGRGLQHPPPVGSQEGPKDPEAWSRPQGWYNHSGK

Legend:
Details in all cases: equilibrium dissociation constant, class symbols
MLKL (full length) = molecular target: T1, MLKL (full length) (Homo sapiens, UniProt Q8NB16); experiment: KINOMEscan binding assay, MLKL
T1 construct: purchased DiscoverX (KINOMEscan service); host or cells: E. coli BL21-derived (T7 phage) or HEK293
T1 sequence (Q8NB16 1-471): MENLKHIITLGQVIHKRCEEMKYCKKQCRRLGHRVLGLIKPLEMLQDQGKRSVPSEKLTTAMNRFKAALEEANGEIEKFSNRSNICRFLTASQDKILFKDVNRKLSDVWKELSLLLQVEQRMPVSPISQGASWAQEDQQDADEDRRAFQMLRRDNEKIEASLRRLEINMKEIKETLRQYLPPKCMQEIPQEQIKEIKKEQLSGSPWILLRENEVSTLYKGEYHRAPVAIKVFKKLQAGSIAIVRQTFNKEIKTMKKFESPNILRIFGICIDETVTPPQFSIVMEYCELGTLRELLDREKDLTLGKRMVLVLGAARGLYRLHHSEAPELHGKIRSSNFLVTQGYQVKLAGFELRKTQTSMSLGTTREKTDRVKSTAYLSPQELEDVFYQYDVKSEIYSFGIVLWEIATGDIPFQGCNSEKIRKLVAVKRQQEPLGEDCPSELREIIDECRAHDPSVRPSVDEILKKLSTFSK

RIP3 = molecular target: T2, RIP3 (Homo sapiens, UniProt Q9Y572); experiment: KINOMEscan binding assay, RIP3
T2 construct: purchased DiscoverX (KINOMEscan service); host or cells: E. coli BL21-derived (T7 phage) or HEK293

RIP1 = molecular target: T3, RIP1 (Homo sapiens, UniProt Q13546); experiment: KINOMEscan binding assay, RIP1
T3 construct: purchased DiscoverX (KINOMEscan service); host or cells: E. coli BL21-derived (T7 phage) or HEK293
T3 sequence (Q13546 1-671): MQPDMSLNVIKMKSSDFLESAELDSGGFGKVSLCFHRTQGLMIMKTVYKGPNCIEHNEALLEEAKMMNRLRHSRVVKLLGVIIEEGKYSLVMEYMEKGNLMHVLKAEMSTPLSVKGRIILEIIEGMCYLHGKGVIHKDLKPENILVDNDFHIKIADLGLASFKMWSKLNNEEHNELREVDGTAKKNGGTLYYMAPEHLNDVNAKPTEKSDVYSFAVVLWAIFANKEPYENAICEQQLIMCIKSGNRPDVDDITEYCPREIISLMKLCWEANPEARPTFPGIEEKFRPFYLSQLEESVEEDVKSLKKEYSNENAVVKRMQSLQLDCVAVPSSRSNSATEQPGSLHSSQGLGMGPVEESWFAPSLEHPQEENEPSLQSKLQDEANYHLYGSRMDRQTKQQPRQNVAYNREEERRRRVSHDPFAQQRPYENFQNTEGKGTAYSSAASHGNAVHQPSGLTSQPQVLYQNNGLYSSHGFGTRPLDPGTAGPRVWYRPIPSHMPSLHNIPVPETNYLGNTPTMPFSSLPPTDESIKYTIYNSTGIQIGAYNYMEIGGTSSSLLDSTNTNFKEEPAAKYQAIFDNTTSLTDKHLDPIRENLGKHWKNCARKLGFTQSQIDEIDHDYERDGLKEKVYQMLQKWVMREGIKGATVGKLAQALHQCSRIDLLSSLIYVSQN

Row | Kd (MLKL (full length)) | Kd (RIP3) | Kd (RIP1) | Compound
1 | < 0.01 µM | > 30 µM | > 30 µM | NC(=O)c1c(-c2ccc(NS(=O)(=O)C(F)F)c(OCc3ccc(F)c(F)c3)c2)n[nH]c1Nc1cccc(C(F)(F)F)n1 [Compound 151, 3-(3-((3,4-difluorobenzyl)oxy)-4-((difluoromethyl)sulfonamido)phenyl)-5-((6-(trifluoromethyl)pyridine-2-yl)amino)-1H-pyrazole-4-carboxamide]
2 | < 0.01 µM | > 30 µM | > 30 µM | C[C@H](Oc1cc(-c2n[nH]c(Nc3ccccn3)c2C(N)=O)ccc1NS(=O)(=O)CC(F)(F)F)c1ccc(F)cc1 [Compound 154, (S)-3-(3-(1-(4-fluorophenyl)ethoxy)-4-((2,2,2-trifluoroethyl)sulfonamido)phenyl)-5-(pyridine-2-ylamino)-1H-pyrazole-4-carboxamide]
3 | < 0.01 µM | > 30 µM | > 30 µM | Cc1cnc(Nc2[nH]nc(-c3ccc(NS(=O)(=O)CC(F)(F)F)c(OCc4ccc(F)c(Cl)c4)c3)c2C(N)=O)cn1 [Compound 155, 3-(3-((3-chloro-4-fluorobenzyl)oxy)-4-((2,2,2-trifluoroethyl)sulfonamido)phenyl)-5-((5-methylpyrazin-2-yl)amino)-1H-pyrazole-4-carboxamide]
4 | < 0.01 µM | > 30 µM | > 30 µM | CCS(=O)(=O)Nc1ccc(-c2n[nH]c(Nc3cnccn3)c2C(N)=O)cc1OCc1ccc(F)cn1 [Compound 156, 3-(4-(ethylsulfonamido)-3-((5-fluoropyridin-2-yl)methoxy)phenyl)-5-(pyrazin-2-ylamino)-1H-pyrazole-4-carboxamide]
5 | < 0.01 µM | > 30 µM | > 30 µM | COc1cnc(Nc2[nH]nc(-c3ccc(NS(=O)(=O)CC(F)(F)F)c(OCc4ccc(Cl)cc4)c3)c2C(N)=O)cn1 [Compound 157, 3-(3-((4-chlorobenzyl)oxy)-4-((2,2,2-trifluoroethyl)sulfonamido)phenyl)-5-((5-methoxypyrazin-2-yl)amino)-1H-pyrazole-4-carboxamide]
6 | < 0.01 µM | > 30 µM | > 30 µM | CCS(=O)(=O)Nc1ccc(-c2n[nH]c(Nc3cnc(C4CC4)cn3)c2C(N)=O)cc1 [Compound 158, 5-((5-cyclopropylpyrazin-2-yl)amino)-3-(4-(ethylsulfonamido)phenyl)-1H-pyrazole-4-carboxamide]
7 | < 0.01 µM | > 30 µM | > 30 µM | COc1ccc(Nc2[nH]nc(-c3ccc(NS(=O)(=O)CC(F)(F)F)c(OCc4ccc(F)cc4)c3)c2C(N)=O)cn1 [Compound 159, 3-(3-((4-fluorobenzyl)oxy)-4-((2,2,2-trifluoroethyl)sulfonamido)phenyl)-5-((6-methoxypyridin-3-yl)amino)-1H-pyrazole-4-carboxamide]
8 | < 0.01 µM | > 30 µM | > 30 µM | NC(=O)c1c(-c2ccc(NS(=O)(=O)CC(F)(F)F)c(OCc3ccc(F)c(F)c3)c2)n[nH]c1Nc1ccccn1 [Compound 160, 3-(3-((3,4-difluorobenzyl)oxy)-4-((2,2,2-trifluoroethyl)sulfonamido)phenyl)-5-(pyridine-2-ylamino)-1H-pyrazole-4-carboxamide]
9 | < 0.01 µM | > 30 µM | > 30 µM | NC(=O)c1c(-c2ccc(NS(=O)(=O)CC(F)(F)F)c(OCc3ccc(Cl)c(F)c3)c2)n[nH]c1Nc1cnccn1 [Compound 165, 3-(3-((4-chloro-3-fluorobenzyl)oxy)-4-((2,2,2-trifluoroethyl)sulfonamido)phenyl)-5-(pyrazin-2-ylamino)-1H-pyrazole-4-carboxamide]
10 | < 0.01 µM | > 30 µM | > 30 µM | NC(=O)c1c(-c2ccc(NS(=O)(=O)CC(F)(F)F)c(OCc3ccc(F)c(F)c3)c2)n[nH]c1Nc1cnccn1 [Compound 175, 3-(3-((3,4-difluorobenzyl)oxy)-4-((2,2,2-trifluoroethyl)sulfonamido)phenyl)-5-(pyrazin-2-ylamino)-1H-pyrazole-4-carboxamide]
11 | < 0.01 µM | > 30 µM | > 30 µM | NC(=O)c1c(-c2ccc(NS(=O)(=O)CC(F)F)c(OCc3ccc(F)cc3)c2)n[nH]c1Nc1cnccn1 [Compound 180, 3-(4-((2,2-difluoroethyl)sulfonamido)-3-((4-fluorobenzyl)oxy)phenyl)-5-(pyrazin-2-ylamino)-1H-pyrazole-4-carboxamide]
12 | < 0.01 µM | 1 to 30 µM | > 30 µM | CCS(=O)(=O)Nc1ccc(-c2n[nH]c(Nc3cnc(C(C)(C)C)cn3)c2C(N)=O)cc1 [Compound 181, 5-((5-(tert-butyl)pyrazin-2-yl)amino)-3-(4-(ethylsulfonamido)phenyl)-1H-pyrazole-4-carboxamide]
13 | < 0.01 µM | > 30 µM | > 30 µM | NC(=O)c1c(-c2ccc(NS(=O)(=O)C(F)F)c(OCc3ccc(F)cc3)c2)n[nH]c1Nc1ccc(C(F)(F)F)nc1 [Compound 188, 3-(4-((difluoromethyl)sulfonamido)-3-((4-fluorobenzyl)oxy)phenyl)-5-((6-(trifluoromethyl)pyridine-3-yl)amino)-1H-pyrazole-4-carboxamide]
14 | < 0.01 µM | > 30 µM | > 30 µM | COc1cnc(Nc2[nH]nc(-c3ccc(NS(=O)(=O)C(F)F)c(OCc4ccc(Cl)cc4)c3)c2C(N)=O)cn1 [Compound 190, 3-(3-((4-chlorobenzyl)oxy)-4-((difluoromethyl)sulfonamido)phenyl)-5-((5-methoxypyrazin-2-yl)amino)-1H-pyrazole-4-carboxamide]
15 | < 0.01 µM | > 30 µM | > 30 µM | COc1cnc(Nc2[nH]nc(-c3ccc(NS(=O)(=O)C(F)F)c(OCc4ccc(F)cc4)c3)c2C(N)=O)cn1 [Compound 191, 3-(4-((difluoromethyl)sulfonamido)-3-((4-fluorobenzyl)oxy)phenyl)-5-((5-methoxypyrazin-2-yl)amino)-1H-pyrazole-4-carboxamide]
16 | < 0.01 µM | > 30 µM | > 30 µM | CCS(=O)(=O)Nc1ccc(-c2n[nH]c(Nc3ccc(C(F)(F)F)nc3)c2C(N)=O)cc1OCc1ccc(F)cc1 [Compound 194]
17 | < 0.01 µM | > 30 µM | > 30 µM | COc1ccc(Nc2[nH]nc(-c3ccc(NS(=O)(=O)C(F)F)c(OCc4ccc(F)cc4)c3)c2C(N)=O)cn1 [Compound 196, 3-(4-((difluoromethyl)sulfonamido)-3-((4-fluorobenzyl)oxy)phenyl)-5-((6-methoxypyridin-3-yl)amino)-1H-pyrazole-4-carboxamide]
18 | 0.01 to 1 µM | > 30 µM | > 30 µM | CCS(=O)(=O)Nc1ccc(-c2n[nH]c(Nc3cnccn3)c2C(N)=O)cc1OCC1CCN(C)CC1 [Compound 203, 3-(4-(ethylsulfonamido)-3-((1-methylpiperidin-4-yl)methoxy)phenyl)-5-(pyrazin-2-ylamino)-1H-pyrazole-4-carboxamide]
19 | < 0.01 µM | > 30 µM | > 30 µM | NC(=O)c1c(-c2ccc(NS(=O)(=O)C(F)(F)F)cc2)n[nH]c1Nc1cccc(C(F)(F)F)n1 [Compound 205]
20 | < 0.01 µM | > 30 µM | > 30 µM | CCS(=O)(=O)Nc1ccc(-c2n[nH]c(Nc3cnccn3)c2C(N)=O)cc1OCCc1ccccc1Cl [Compound 206, 3-(3-(2-chlorophenethoxy)-4-(ethylsulfonamido)phenyl)-5-(pyrazin-2-ylamino)-1H-pyrazole-4-carboxamide]
